From patent US20130123254A1, “PHARMACEUTICALLY ACCEPTABLE MGLUR5 POSITIVE ALLOSTERIC MODULATORS AND THEIR METHODS OF IDENTIFICATION” (priority 2011, published 2013) come the findings set out here.

A short description of the series: HTD/LTD dose, tolerability in rat. The note with it: observation at the HTD/LTD dose.

`CN1C(=O)N(c2ccc(C#Cc3ccccc3)cn2)CC1(C)C` [Example 14]: the “HTD/LTD Dose (rat) (observation)” value is reported as “seizures”.
